Laboratory results reported in publication PMC4971072, “Chemically Homogenous Compounds with Antagonistic Properties at All α1-Adrenoceptor Subtypes but not β1-Adrenoceptor Attenuate Adrenaline-Induced Arrhythmia in Rats” (Frontiers in Pharmacology, 2016).
Counter-ions that a name gives are not always drawn.

Sequences of proteins named here, by UniProt entry; tags and fusion partners are left off.
UniProt P97717, whole entry: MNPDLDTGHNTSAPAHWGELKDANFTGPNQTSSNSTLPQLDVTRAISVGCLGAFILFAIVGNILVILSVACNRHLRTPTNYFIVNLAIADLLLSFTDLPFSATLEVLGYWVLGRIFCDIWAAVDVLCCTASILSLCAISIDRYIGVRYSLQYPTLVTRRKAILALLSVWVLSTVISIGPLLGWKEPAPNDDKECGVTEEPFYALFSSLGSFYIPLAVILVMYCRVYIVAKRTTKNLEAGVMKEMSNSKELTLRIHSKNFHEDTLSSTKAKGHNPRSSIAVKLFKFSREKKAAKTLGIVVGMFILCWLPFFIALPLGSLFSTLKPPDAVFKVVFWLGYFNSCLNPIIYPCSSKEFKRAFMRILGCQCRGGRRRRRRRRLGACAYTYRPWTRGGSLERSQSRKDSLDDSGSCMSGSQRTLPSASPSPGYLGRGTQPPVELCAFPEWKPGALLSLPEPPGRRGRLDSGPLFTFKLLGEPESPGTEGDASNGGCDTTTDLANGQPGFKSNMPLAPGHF
UniProt P23944, whole entry: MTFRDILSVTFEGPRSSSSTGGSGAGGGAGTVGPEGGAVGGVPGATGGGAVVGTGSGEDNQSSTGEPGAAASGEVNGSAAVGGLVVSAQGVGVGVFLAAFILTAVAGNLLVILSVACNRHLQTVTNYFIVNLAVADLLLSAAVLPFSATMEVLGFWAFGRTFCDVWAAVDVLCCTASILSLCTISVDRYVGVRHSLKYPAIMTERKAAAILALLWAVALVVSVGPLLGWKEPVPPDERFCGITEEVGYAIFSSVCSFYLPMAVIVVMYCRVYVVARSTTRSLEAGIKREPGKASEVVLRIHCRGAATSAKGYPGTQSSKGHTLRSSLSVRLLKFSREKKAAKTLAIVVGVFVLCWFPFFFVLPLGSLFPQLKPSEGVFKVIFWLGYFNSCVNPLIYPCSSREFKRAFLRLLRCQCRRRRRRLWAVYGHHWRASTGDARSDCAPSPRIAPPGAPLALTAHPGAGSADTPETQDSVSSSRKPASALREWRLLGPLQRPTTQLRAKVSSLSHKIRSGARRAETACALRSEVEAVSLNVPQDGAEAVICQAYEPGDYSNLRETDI

Experiments:
α1A-adrenoceptors = biological target: T1, α1A-adrenoceptors (Rattus norvegicus, UniProt P43140); assay: Functional bioassay, isolated rat tail artery, noradrenaline contraction; assay type: biochemical
T1 construct: the middle part of the ventral caudal artery was removed; from tissue; host or cells: isolated rat tail (ventral caudal) artery rings
T1 sequence (P43140 1-466): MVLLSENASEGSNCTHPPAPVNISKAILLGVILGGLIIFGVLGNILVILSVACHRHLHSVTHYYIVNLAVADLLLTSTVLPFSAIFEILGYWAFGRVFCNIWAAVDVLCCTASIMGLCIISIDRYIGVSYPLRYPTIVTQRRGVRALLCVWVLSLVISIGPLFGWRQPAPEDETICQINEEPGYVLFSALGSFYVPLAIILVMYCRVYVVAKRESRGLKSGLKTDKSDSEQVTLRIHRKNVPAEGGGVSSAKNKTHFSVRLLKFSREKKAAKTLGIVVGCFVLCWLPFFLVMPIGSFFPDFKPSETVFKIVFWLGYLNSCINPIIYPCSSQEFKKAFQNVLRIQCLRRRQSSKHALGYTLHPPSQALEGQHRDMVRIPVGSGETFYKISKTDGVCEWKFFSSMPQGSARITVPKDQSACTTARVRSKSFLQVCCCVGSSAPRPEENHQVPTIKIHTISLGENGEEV
Protocol: The isolated artery, cut into ~4 mm long rings, was then horizontally put up between two stainless steel hooks (diameter 0.15 mm). One hook was fastened to the bottom of the chamber and the other to an isometric FDT10-A force displacement transducer (DMT Model 750TOBS, Denmark), linked with Powerlab 4/26 analyzer (ADInstruments), and processed by LabChart 7 software. […] The initial optimal tissues tension was set at 0.75 g. Chloroethylclonidine (3 μM) as the preferential α1B-adrenoreceptor alkylating agent was used during incubation and after 30 min it was completely washed off. Through 100 min of equilibration tissues were stimulated with noradrenaline (1 μM) four times with washing out until the contractile response become constant. Two cumulative concentration-response curves to noradrenaline, at an interval of 60 min, were established on each arterial ring both in the presence and absence of antagonist. The incubation with antagonists went on for 30 min. The experiments were carried out in the constant presence of yohimbine (0.1 μM) and propranolol (1 μM) to block α2- and β-adrenoceptors, respectively in order to minimize the involvement of these adrenoceptors in the response to noradrenaline.
Data are means ± S.E.M. of at least 4 separate experiments. […]

α1B-adrenoceptors = biological target: T2, α1B-adrenoceptors (Mus musculus, UniProt P97717); assay: Functional bioassay, isolated mouse spleen, noradrenaline contraction; assay type: biochemical
T2 construct: The spleen was removed from male mice; from tissue; host or cells: isolated mouse spleen
Protocol: The influence on α1B-adrenoceptors was evaluated using the isolated mouse spleen. The spleen was removed from male mice right after killing the anesthetized animal by cervical dislocation. […] The initial optimal tissues tension was set at 1.0 g. Through the 100 min of equilibration tissues were stimulated with noradrenaline (0.1−10.0 μM) three times with washing out until the contractile response become constant. Two cumulative concentration-response curves to noradrenaline, at an interval of 60 min, were established on each tissue both in the presence and absence of antagonist. The incubation with antagonists went on for 30 min. The experiments were carried out in the constant presence of propranolol (1 μM) to block β-adrenoceptors, and minimize the involvement of these adrenoceptors in the response to noradrenaline.
(§1) Data are means ± S.E.M. of at least 4 separate experiments. To establish Hill slopes for the agonist concentration–response curves and calculate EC50 values, curves were fitted to all the data by non-linear regression. The EC50 value in the presence and absence of antagonists was used to ascertain the concentration ratio (CR). Schild analysis was performed.

normal ECG in rats = conditions: rat, in vivo, ip
α1D-adrenoreceptors = α1D-adrenoreceptors (Rattus norvegicus, UniProt P23944); assay: Functional bioassay, isolated rat aorta, noradrenaline contraction; assay type: biochemical; parameters: had aorta removed, denuded of endothelium and incubated in the Krebs-Henseleit solution; from tissue; host or cells: isolated rat aorta rings
Protocol: Finally, the influence on α1D-adrenoreceptors was investigated using the isolated rat aorta. […] The aorta rings were maintained at optimal tension of 2.0 g. During 3 h of equilibration tissues were stimulated with noradrenaline three times (0.3 μM). Two cumulative concentration-response curves to noradrenaline, at an interval of 60 min, were established on each tissue both in the presence and absence of antagonist. The incubation with antagonists went on for 30 min. The experiments were carried out in the constant presence of yohimbine (0.1 μM) and propranolol (1 μM) to block α2- and β-adrenoceptors, respectively.
as §1

`COc1ccccc1N1CCN(CCCOc2cc(C)ccc2C)CC1` [HBK-17, 1N-[3-(2,5-dimethylphenoxy)propyl]-4N-(2-methoxyphenyl)piperazine hydrochloride] was tested, and the Kb (α1A-adrenoceptors) was 7.08 nM, the “Schild slope ± S.E.M., α1A” value (α1A-adrenoceptors) was 8.15 ± 0.08 (0.91 ± 0.05) and the Kb (α1B-adrenoceptors) was 11.5 nM. The “Schild slope ± S.E.M., α1B” value (α1B-adrenoceptors) was 7.94 ± 0.06 (0.91 ± 0.03), the “influence on ECG parameters (PQ interval, QRS complex, QTc interval)” value (normal ECG in rats) was “without affecting PQ interval, QRS complex or QTc interval” and the “reduction of heart rate” value (normal ECG in rats) was 9−12%. For the same compound, the Kb (α1D-adrenoreceptors) was 1.48 nM and the “Schild slope ± S.E.M., α1D” value (α1D-adrenoreceptors) was 8.83 ± 0.09 (1.01 ± 0.07).
